# Columns and labels:
# GlpG from E. coli = GlpG from E. coli (Escherichia coli, UniProt P09391); experiment: Gel-based labeling of rhomboid by fluorescent activity-based probes; assay type: biochemical; conditions: 1 µM probe, 45 nM GlpG WT or inactive S201A mutant, 30 min
# [1] = system: mouse metabolic serine hydrolases; conditions: cited from earlier work
smiles,measurement,setting,value
CCOP(=O)(F)CCCCCCCCCCNC(=O)c1ccc(-c2c3ccc(=[N+](C)C)cc-3oc3cc(N(C)C)ccc23)c(C(=O)[O-])c1 (centres unmarked),activity-based labeling of GlpG by the probe,GlpG from E. coli,"labeled wild-type (WT) GlpG from E. coli, but not the inactive S201A mutant"
same,fraction of mouse metabolic serine hydrolases that react with the probe,[1],82%

# — PMC3750051, “A New Class of Rhomboid Protease Inhibitors Discovered by Activity-Based Fluorescence Polarization” (PLoS ONE, 2013)
